US20260232830A1, “ANTIGEN BINDING MOLECULE SPECIFICALLY BINDING TO EGFR AND MUC1, DRUG CONJUGATE THEREOF, AND MEDICAL USE THEREOF” (Jiangsu Hengrui Pharmaceuticals Co., Ltd., priority 2023, published 2026)

Tested on: CHOK1-cyno-MUC1-C cells
Experiment: FACS-based determination of affinity of chimeric and humanized anti-MUC1-C antibodies
Assay type: binding
Design: key: “+” means that there was binding; “−” means that there was no binding
Protocol: HCC827-human-MUC1-C cells (in-house constructed overexpression stably transfected cell strain), CHOK1-cyno-MUC1-C cells (in-house constructed overexpression stably transfected cell strain), and T47D cells (human ductal breast cancer cells) were separately digested and added to a 96-well plate at 1E5 cells/well. After the plate was centrifuged at 300 g for 5 min, the supernatant was discarded, and the cells were washed once with a PBS buffer containing 2% FBS. The antibodies were 5-fold diluted from a starting concentration of 20 μg/mL using a PBS buffer containing 2% FBS to obtain a total of 8 concentration gradients. The antibody samples were added at 100 μL/well, and the cells were resuspended and incubated at 4° C. for 1 h. After the plate was centrifuged at 300 g for 5 min, the supernatant was discarded, and the cells were washed twice with a PBS buffer containing 2% FBS. […] After the plate was centrifuged at 300 g for 5 min, the supernatant was discarded, and the cells were washed twice with a PBS buffer containing 2% FBS. The cells were resuspended in 100 μL of a PBS buffer containing 2% FBS and analyzed using an instrument. […] The experimental process was the same as that in Test Example 1 “FACS-Based Determination of Affinity of Chimeric Antibodies”. In addition, CHOK1-human-MUC1-C cells (in-house constructed overexpression stably transfected cell strain) were used for evaluation.

Molecule	Qualitative determination (Table 19-2, Test 1)	Qualitative determination (Table 19-2, Test 2)	further results
ChiM4: chimeric antibody of M4: murine VH/VL (SEQ ID NO: 4/5) with human constant regions (SEQ ID NO: 69/70) (antibody) heavy: QVQLQQSGAELARPGASVKLSCKASGYSFTTYGVPWVKQRTGQGLEWIGDIYPRSGNTYYNEKFKGKATLTADKSSDTVFMELRSLSSEDSAVYFCAREDYDNYPYALDYWGQGTSVTVSSASTKGPSVFPLAPSSKSTSGGTAALGCLVKDYFPEPVTVSWNSGALTSGVHTFPAVLQSSGLYSLSSVVTVPSSSLGTQTYICNVNHKPSNTKVDKKV[human IgG1 Fc not spelt out] light: EIVLTQSPAIIAASPGEKVTITCSASSSVFNMNWYQQKPGSSPKIWIYDISKLASGVPGRFSGSGSGTSFSLTINSMEAEDVGTYYCQQRSFYPPTFGGGTKVEIKRTVAAPSVFIFPPSDEQLKSGTASVVCLLNNFYPREAKVQWKVDNALQSGNSQESVTEQDSKDSTYSLSSTLTLSKADYEKHKVYACEVTHQGLSSPVTKSFNRGEC	–	–	Qualitative determination (Table 19-1, Test 1): +; Qualitative determination (Table 19-1, Test 2): +
M6-H5L1: humanized antibody of M6: huM6VH5 + huM6VL1 (antibody) heavy: EVQLVQSGAEVKKPGASVKVSCKASGYRFIPYWIEWVRERPGHGLEWMGEILPGTGRTNYNEKFKGRVTFTADTSTNTVYMELSSLTSEDTAVYYCARYGEDTSGGYYAVDYWGQGTTVTVSSASTKGPSVFPLAPSSKSTSGGTAALGCLVKDYFPEPVTVSWNSGALTSGVHTFPAVLQSSGLYSLSSVVTVPSSSLGTQTYICNVNHKPSNTKVDKKV[human IgG1 Fc not spelt out] light: DIVMTQSPDSLAVSLGERATINCRASESVNILGTNLIHWYQQKPGQPPKLLIYHASNLETGVPDRFSGSGSRTDFTLTISSLQAEDVAVYYCLQSRKIPWTFGGGTKVEIKRTVAAPSVFIFPPSDEQLKSGTASVVCLLNNFYPREAKVQWKVDNALQSGNSQESVTEQDSKDSTYSLSSTLTLSKADYEKHKVYACEVTHQGLSSPVTKSFNRGEC	+	–	–
M6-H1L2: humanized antibody of M6: huM6VH1 + huM6VL2 (antibody) heavy: EVQLVQSGAEVKKPGASVKVSCKASGYTFTPYWIEWVRQAPGQGLEWMGEILPGTGRTNYNEKFKGRVTFTADTSTNTVYMELSSLRSEDTAVYYCARYGDDTSGGYYAVDYWGQGTTVTVSSASTKGPSVFPLAPSSKSTSGGTAALGCLVKDYFPEPVTVSWNSGALTSGVHTFPAVLQSSGLYSLSSVVTVPSSSLGTQTYICNVNHKPSNTKVDKKV[human IgG1 Fc not spelt out] light: EIVLTQSPATLSLSPGERATLSCRASESVNILGTNLIHWYQQKPGQAPKLLIYHASNLETGIPARFSGSGSRTDFTLTISSLEPEDFAVYYCLQSRKIPWTFGGGTKVEIKRTVAAPSVFIFPPSDEQLKSGTASVVCLLNNFYPREAKVQWKVDNALQSGNSQESVTEQDSKDSTYSLSSTLTLSKADYEKHKVYACEVTHQGLSSPVTKSFNRGEC	–	+	–
M6-H6L1: humanized antibody of M6: huM6VH6 + huM6VL1 (antibody) heavy: EVQLVQSGAEVKKPGASVKVSCKASGYRFIPYWIEWVRERPGHGLEWMGEILPGTGRTNYNEKFKGRVTFTADTSTNTVYMELSQLTSEDTAVYYCARYGEDTSGGYYAVDYWGQGTTVTVSSASTKGPSVFPLAPSSKSTSGGTAALGCLVKDYFPEPVTVSWNSGALTSGVHTFPAVLQSSGLYSLSSVVTVPSSSLGTQTYICNVNHKPSNTKVDKKV[human IgG1 Fc not spelt out] light: DIVMTQSPDSLAVSLGERATINCRASESVNILGTNLIHWYQQKPGQPPKLLIYHASNLETGVPDRFSGSGSRTDFTLTISSLQAEDVAVYYCLQSRKIPWTFGGGTKVEIKRTVAAPSVFIFPPSDEQLKSGTASVVCLLNNFYPREAKVQWKVDNALQSGNSQESVTEQDSKDSTYSLSSTLTLSKADYEKHKVYACEVTHQGLSSPVTKSFNRGEC	+	–	–
M6-H6L2: humanized antibody of M6: huM6VH6 + huM6VL2 (antibody) heavy: EVQLVQSGAEVKKPGASVKVSCKASGYRFIPYWIEWVRERPGHGLEWMGEILPGTGRTNYNEKFKGRVTFTADTSTNTVYMELSQLTSEDTAVYYCARYGEDTSGGYYAVDYWGQGTTVTVSSASTKGPSVFPLAPSSKSTSGGTAALGCLVKDYFPEPVTVSWNSGALTSGVHTFPAVLQSSGLYSLSSVVTVPSSSLGTQTYICNVNHKPSNTKVDKKV[human IgG1 Fc not spelt out] light: EIVLTQSPATLSLSPGERATLSCRASESVNILGTNLIHWYQQKPGQAPKLLIYHASNLETGIPARFSGSGSRTDFTLTISSLEPEDFAVYYCLQSRKIPWTFGGGTKVEIKRTVAAPSVFIFPPSDEQLKSGTASVVCLLNNFYPREAKVQWKVDNALQSGNSQESVTEQDSKDSTYSLSSTLTLSKADYEKHKVYACEVTHQGLSSPVTKSFNRGEC	–	+	–
M6-H4L2: humanized antibody of M6: huM6VH4 + huM6VL2 (antibody) heavy: EVQLVQSGAEVKKPGASVKVSCKASGYRFIPYWIEWVRERPGHGLEWMGEILPGTGRTNYNEKFKGRVTFTADTSTNTVYMELSSLTSEDTAVYYCARYGDDTSGGYYAVDYWGQGTTVTVSSASTKGPSVFPLAPSSKSTSGGTAALGCLVKDYFPEPVTVSWNSGALTSGVHTFPAVLQSSGLYSLSSVVTVPSSSLGTQTYICNVNHKPSNTKVDKKV[human IgG1 Fc not spelt out] light: EIVLTQSPATLSLSPGERATLSCRASESVNILGTNLIHWYQQKPGQAPKLLIYHASNLETGIPARFSGSGSRTDFTLTISSLEPEDFAVYYCLQSRKIPWTFGGGTKVEIKRTVAAPSVFIFPPSDEQLKSGTASVVCLLNNFYPREAKVQWKVDNALQSGNSQESVTEQDSKDSTYSLSSTLTLSKADYEKHKVYACEVTHQGLSSPVTKSFNRGEC	–	+	–
M6-H5L2: humanized antibody of M6: huM6VH5 + huM6VL2 (antibody) heavy: EVQLVQSGAEVKKPGASVKVSCKASGYRFIPYWIEWVRERPGHGLEWMGEILPGTGRTNYNEKFKGRVTFTADTSTNTVYMELSSLTSEDTAVYYCARYGEDTSGGYYAVDYWGQGTTVTVSSASTKGPSVFPLAPSSKSTSGGTAALGCLVKDYFPEPVTVSWNSGALTSGVHTFPAVLQSSGLYSLSSVVTVPSSSLGTQTYICNVNHKPSNTKVDKKV[human IgG1 Fc not spelt out] light: EIVLTQSPATLSLSPGERATLSCRASESVNILGTNLIHWYQQKPGQAPKLLIYHASNLETGIPARFSGSGSRTDFTLTISSLEPEDFAVYYCLQSRKIPWTFGGGTKVEIKRTVAAPSVFIFPPSDEQLKSGTASVVCLLNNFYPREAKVQWKVDNALQSGNSQESVTEQDSKDSTYSLSSTLTLSKADYEKHKVYACEVTHQGLSSPVTKSFNRGEC	–	+	–
M6-H2L2: humanized antibody of M6: huM6VH2 + huM6VL2 (antibody) heavy: EVQLVQSGAEVKKPGASVKVSCKASGYRFIPYWIEWVRQAPGQGLEWMGEILPGTGRTNYNEKFKGRVTFTADTSTNTVYMELSSLRSEDTAVYYCARYGDDTSGGYYAVDYWGQGTTVTVSSASTKGPSVFPLAPSSKSTSGGTAALGCLVKDYFPEPVTVSWNSGALTSGVHTFPAVLQSSGLYSLSSVVTVPSSSLGTQTYICNVNHKPSNTKVDKKV[human IgG1 Fc not spelt out] light: EIVLTQSPATLSLSPGERATLSCRASESVNILGTNLIHWYQQKPGQAPKLLIYHASNLETGIPARFSGSGSRTDFTLTISSLEPEDFAVYYCLQSRKIPWTFGGGTKVEIKRTVAAPSVFIFPPSDEQLKSGTASVVCLLNNFYPREAKVQWKVDNALQSGNSQESVTEQDSKDSTYSLSSTLTLSKADYEKHKVYACEVTHQGLSSPVTKSFNRGEC	–	+	–
M6-H3L2: humanized antibody of M6: huM6VH3 + huM6VL2 (antibody) heavy: EVQLVQSGAEVKKPGASVKVSCKASGYRFIPYWIEWVRQRPGQGLEWMGEILPGTGRTNYNEKFKGRVTFTADTSTNTVYMELSSLRSEDTAVYYCARYGDDTSGGYYAVDYWGQGTTVTVSSASTKGPSVFPLAPSSKSTSGGTAALGCLVKDYFPEPVTVSWNSGALTSGVHTFPAVLQSSGLYSLSSVVTVPSSSLGTQTYICNVNHKPSNTKVDKKV[human IgG1 Fc not spelt out] light: EIVLTQSPATLSLSPGERATLSCRASESVNILGTNLIHWYQQKPGQAPKLLIYHASNLETGIPARFSGSGSRTDFTLTISSLEPEDFAVYYCLQSRKIPWTFGGGTKVEIKRTVAAPSVFIFPPSDEQLKSGTASVVCLLNNFYPREAKVQWKVDNALQSGNSQESVTEQDSKDSTYSLSSTLTLSKADYEKHKVYACEVTHQGLSSPVTKSFNRGEC	–	+	–
M6-H7L1: humanized antibody of M6: huM6VH7 + huM6VL1 (antibody) heavy: EVQLVQSGAEVKKPGASVKVSCKASGYRFIPYWIEWVRERPGHGLEWMGEILPGTGRTNYNEKFKGRVTFTADTSTNTVYMELSSLTNEDTAVYYCARYGEDTSGGYYAVDYWGQGTTVTVSSASTKGPSVFPLAPSSKSTSGGTAALGCLVKDYFPEPVTVSWNSGALTSGVHTFPAVLQSSGLYSLSSVVTVPSSSLGTQTYICNVNHKPSNTKVDKKV[human IgG1 Fc not spelt out] light: DIVMTQSPDSLAVSLGERATINCRASESVNILGTNLIHWYQQKPGQPPKLLIYHASNLETGVPDRFSGSGSRTDFTLTISSLQAEDVAVYYCLQSRKIPWTFGGGTKVEIKRTVAAPSVFIFPPSDEQLKSGTASVVCLLNNFYPREAKVQWKVDNALQSGNSQESVTEQDSKDSTYSLSSTLTLSKADYEKHKVYACEVTHQGLSSPVTKSFNRGEC	+	–	–
